Experiments:
IFN-αB2 = target: T1, IFN-αB2 (human, UniProt P32881 24-189); test: ProteOn SPR, cell supernatant;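 note: each binding measurement used just a single antigen concentration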
T1 construct: Recombinant, HEK293; also called IFN-α8

IFN-αC = target: T2, IFN-αC (human, UniProt P01566 24-189); test: ProteOn SPR, cell supernatant;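 note: each binding measurement used just a single antigen concentration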
T2 construct: Recombinant, HEK293; also called IFN-α10

B1: IFWM3401 (antibody, IgG1, V domains shown)
VH: EVQLVQSGAEVKKPGESLKISCKGSGYSFTSYWIGWVRQMPGKGLEWMGIIDPSDSDTRYSPSFQGQVTISADKSISTAYLQWSSLKASDTAMYYCARHPGLAWAPDFDYWGQGTLVTVSS
VL: DIQMTQSPSSLSASVGDRVTITCRASQSITNHLNWYQQKPGKAPKLLIYFASSLQSGVPSRFSGSGSGTDFTLTISSLQPEDFATYYCQQAHNFPLTFGQGTKVEIK
notes: mAb; IgG1/kappa said of the parent and of selected mAbs; also called IFWB3136
Q: How did the Kd (IFN-αB2) turn out when B1 was run?
A: 0.042 nM

Q: What about the Kd (IFN-αC) of the same binder?
A: 0.042 nM

— patent US20150368338A1 (Janssen / Centocor, published 2015)
